According to PubChem BioAssay AID463116 (University of Pittsburgh Molecular Library Screening Center, 2010):
Only a part is listed here, and it is no random draw. Results filed as inconclusive are left out. Active and inactive are the calls of the source.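 Rule for the calls: active = inhibition of receptor movement into the nucleus at or above a set limit in both runs, with normal cell brightness and cell count; inconclusive = limit reached in only one run, brightness and count normal; inactive = the rest.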

Assay: dynein cargo transport inhibitors, GR-EGFP translocation, confirmation, imaging, high-content imaging, GR-EGFP cells (AID 463116);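 note: dexamethasone at 1 µM final in well for 30 min; nuclear minus cytoplasmic GR-EGFP mean intensity difference in channel 2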
Conditions: 3617.4 GR-EGFP nuclear translocation imaging, dexamethasone-induced; at 20 µM; stronger effect = higher value

| Structure (SMILES) | inhibition |
| --- | --- |
| O=[N+]([O-])c1cc([N+](=O)[O-])c(-n2nnc3ccccc32)c([N+](=O)[O-])c1 | active: 59.3% |
